# Measured values taken from patent publication US6060451A, “Thrombin inhibitors based on the amino acid sequence of hirudin” (The National Research Council of Canada, priority 1995, dated 2000).
# Molecular target: bovine α-thrombin (Bos taurus, UniProt P00735)
# Conditions: read-out: IC50 fibrinogen clotting / fibrin clot formation
smiles,measurement,value
CC[C@H](C)[C@H](NC(=O)[C@H](CCC(=O)O)NC(=O)[C@H](CCC(=O)O)NC(=O)[C@H](Cc1ccccc1)NC(=O)[C@H](CC(=O)O)NC(=O)CNC(=O)[C@H](CC(=O)O)NC(=O)[C@H](CC(N)=O)NC(=O)[C@H](Cc1c[nH]cn1)NC(=O)[C@H](CO)NC(=O)[C@H](CCC(N)=O)NC(=O)[C@@H]1CCCN1C(=O)[C@H](CCCCN)NC(=O)[C@@H]1CCCN1C(=O)[C@@H](NC(C)=O)[C@@H](C)O)C(=O)N1CCC[C@H]1C(=O)N[C@@H](CCC(=O)O)C(=O)N[C@@H](CCC(=O)O)C(=O)N[C@@H](Cc1ccc(O)cc1)C(=O)N[C@@H](CC(C)C)C(=O)N[C@@H](CCC(N)=O)C(=O)O [native desulfo hirudin^45-65],IC50,940 ± 200 nM
